Measurements taken from patent US20120288531A1, “PHARMACEUTICAL COMPOSITIONS FOR DELIVERY OF FERRIC IRON COMPOUNDS, AND METHODS OF USE THEREOF” (priority 2011, published 2012).

Assays:
[1] = one month at 25° and 40° C.
[2] = Plasma iron levels after administration of ferric compounds via three routes (FIG. 2); details: conscious Sprague-Dawley rats, intra-jejunal via cannula, baseline to 4 hours post-dosing
[3] = Single-dose pharmacokinetic study of enteric-coated gelatin capsules in male beagle dogs; details: 16 tested dogs

ammonium iron(III) citrate [ferric ammonium citrate]
stability in the oily suspension [1]: good stability
plasma iron levels (absorption from the jejunum) [2]: baseline results
side-effects [3]: No side-effects
